The values that follow come from patent US20190062383A1 (priority 2013, published 2019).

One may read the IC50 as the concentration that inhibits the measured activity by half.

Experiment [1] has as its system primary normal human CD4+ T cells.
The test system of experiment [2] is primary normal human CD8+ T cells.

Regarding `CC[C@H](C)[C@@H]1NC(=O)[C@H](CCCCN)NC(=O)[C@@H](NC(=O)[C@H](CCCCN)NC(=O)[C@@H](NC(=O)[C@H](CC(N)=O)NC(=O)[C@@H](NC(=O)[C@@H](NC(=O)[C@@H](NC(=O)CN)C(C)C)[C@@H](C)CC)[C@@H](C)CC)C(C)C)CSSC[C@@H]2NC(=O)[C@H](CCCCN)NC(=O)CNC(=O)[C@H](Cc3ccccc3)NC(=O)[C@H](CCCNC(=N)N)NC(=O)[C@H](CCSC)NC(=O)CNC(=O)[C@H](C)NC(=O)[C@H](CCCCN)NC(=O)[C@H](CCCCN)NC(=O)[C@@H]3CSSC[C@@H](C(=O)N[C@H](C(=O)N4CCC[C@H]4C(=O)N[C@@H](CCCCN)C(=O)O)[C@@H](C)O)NC(=O)[C@H](Cc4c[nH]cn4)NC(=O)[C@H](CSSC[C@H](NC(=O)[C@H](CCC(N)=O)NC(=O)[C@H](CCCNC(=N)N)NC(=O)[C@H](CO)NC1=O)C(=O)N[C@@H](CC(C)C)C(=O)N[C@@H](CCC(=O)O)C(=O)N1CCC[C@H]1C(=O)N3)NC(=O)[C@H](CCCCN)NC(=O)CNC(=O)[C@H](CC(N)=O)NC(=O)[C@H](CCSC)NC2=O` [OsK1], the 50% inhibitory concentration (IC50) in experiment [1] and in experiment [2] was 0.03 nM throughout.
